Measurements reported in patent US6043283A, “Tyramine compounds and their neuronal effects” (priority 1997, dated 2000).

By UniProt entry, the sequences of proteins in these tests, tags left out. Where a name states a change or a piece, a line headed by the entry shows the natural chain unless it says otherwise.
UniProt P05067: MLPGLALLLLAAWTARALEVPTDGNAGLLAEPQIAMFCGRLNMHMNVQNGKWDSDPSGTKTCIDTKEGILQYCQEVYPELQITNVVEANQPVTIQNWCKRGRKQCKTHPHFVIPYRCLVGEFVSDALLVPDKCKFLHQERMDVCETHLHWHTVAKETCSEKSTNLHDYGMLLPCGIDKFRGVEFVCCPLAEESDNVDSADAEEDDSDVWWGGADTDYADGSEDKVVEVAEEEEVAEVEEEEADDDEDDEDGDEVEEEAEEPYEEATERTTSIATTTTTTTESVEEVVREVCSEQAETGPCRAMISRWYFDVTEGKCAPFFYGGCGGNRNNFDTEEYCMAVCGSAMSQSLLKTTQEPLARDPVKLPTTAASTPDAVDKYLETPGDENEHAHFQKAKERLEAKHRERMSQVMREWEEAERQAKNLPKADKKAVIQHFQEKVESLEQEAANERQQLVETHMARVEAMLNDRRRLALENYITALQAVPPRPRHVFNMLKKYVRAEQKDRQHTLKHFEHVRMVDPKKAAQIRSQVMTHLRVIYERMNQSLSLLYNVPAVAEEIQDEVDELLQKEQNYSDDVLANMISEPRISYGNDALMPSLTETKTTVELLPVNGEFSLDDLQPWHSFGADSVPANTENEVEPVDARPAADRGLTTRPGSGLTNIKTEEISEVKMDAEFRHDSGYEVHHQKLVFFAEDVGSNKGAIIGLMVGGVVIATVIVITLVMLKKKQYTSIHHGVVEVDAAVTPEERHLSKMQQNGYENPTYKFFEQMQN

How the values were obtained:
[1] = test system: rat microglia / hippocampal neurons; conditions: mostly 1 μmole/l
rat microglia = experiment: binding of Aβ-coupled microspheres to microglia; conditions: 4 hours at 37° C. (72 h in FIG. 23)
microglia = experiment: inhibition of SpheresAβ1-42 binding to microglia; parameters: species or system rat; conditions: 10 μmoles/l, 4 hours, 37° C.
Method: (§1) FIGS. 15A-D depict inhibition of Aβ binding to microglia. […] Only peptides containing residues 13-16 were able to competitively block sphere binding. […] Spheresmal-BSA (which bind to scavenger receptors) or SpheresAβ1-42 were incubated with microglia for 4 hours following pre-treatment of cells with trypsin (5000 units/ml at 37° C. for 60 min followed by inactivation with soybean trypsin inhibitor), with heparinase (heparin lyase EC 4.2.2.7; two consecutive treatments each of 0.01 units/ml for 60 min), or with chondroitinase ABC (chondroitin ABC lyase EC 4.3.3.4; two consecutive treatments each of 0.02 units/ml for 60 min). […] In contrast, scavenger receptor binding of Spheresmal-BSA was blocked by known scavenger receptor ligands such as dextran sulfate (500 μg/ml) or acetylated LDL (ac-LDL, 200 μg/ml). […] Microglia mixed with hippocampal neurons were treated with combinations of β-D-xyloside (1 mm), heparinase (0.02 units/ml), or chondroitinase (0.04 units/ml) and then exposed to plaques. Enzyme treatments alone, particularly that of heparinase brought on some reduction in neurotoxic activity; however, a combination of both enzymatic degradation of heparin sulfate plus competitive blockade of glycosylation by β-D-xyloside completely eliminated plaque activation.
. Each well then received 250,000 SpheresAβ1-42 or Spheresmal-BSA in the presence or absence of Aβ peptides, GAGs, or scavenger receptor ligands. Binding assays were carried out at 37° C. for 4 hours after which coverslips were dipped 10 times in phosphate buffer and fixed with 4% buffered paraformaldehyde. Microsphere adherence to cells was scored at 200 magnification with phase/fluorescence microscopy. Data, expressed as % inhibition of sphere binding, was calculated from total number of spheres per field noted for control cultures receiving spheres only. Values are based upon at least 3 coverslips from 2 independent experiments. […]; 0.5 ml of a 2.5% suspension) were activated with 1% carbodiimide for 4 hr at room temperature. […]

[2] = test system: Aβ1-42-stimulated microglia; conditions: for blocking of Aβ1-42 induced microglial neurotoxicity by peptides: 10 μmoles/liter peptide, 1 μmole/liter Aβ1-42
hippocampal neurons = type: cell-based, rat; conditions: absence of microglia
Excerpt: FIGS. 21A-D display toxic actions of synthetic Aβ peptides upon neurons. […]. There is, however, a generalized cytotoxic action by Aβ25-35 at>30 μmoles/l on both neurons (FIG. 21A) and astroglia (FIG. 21B). In the absence of microglia, none of the Aβ peptides (at 1 μmole/l) produce destruction of neurons. […] These observations point to the need to deplete neuron cultures of microglia when assessing mechanisms of Aβ toxicity. […]; FIG. 21E).
. […]; see FIG. 18). […].

[3] = test system: plaque-stimulated microglia; experiment: blocking of plaque-induced microglial neurotoxicity; type: cell-based, rat; conditions: FIG. 16C
scavenger receptor = experiment: inhibition of Spheresmal-BSA binding to microglia; parameters: species or system rat; conditions: dextran sulfate 500 μg/ml; ac-LDL 200 μg/ml; Aβ1-16 10 μmole/l
Method: as §1, with “Enzyme treatments alone, particularly that of heparinase brought on some reduction in neurotoxic activity; however, a combination of both enzymatic degradation of heparin sulfate plus competitive blockade of glycosylation by β-D-xyloside completely eliminated plaque activation.” left out
. […] Microsphere adherence to cells was scored at 200 magnification with phase/fluorescence microscopy. Data, expressed as % inhibition of sphere binding, was calculated from total number of spheres per field noted for control cultures receiving spheres only. […]

[4] = type: physicochemical; conditions: chemically defined culture media, 37° C.; Table 2
Excerpt: Solubility of peptides is described for chemicallydefined culture media a […]

human microglia = experiment: induction of neuron-killing human microglia; type: cell-based; conditions: 1 μmole/liter synthetic peptides

Substance	induction of neurotoxic microglia / neuron killing [1]	binding of peptide-coupled microspheres to microglia (rat microglia)	inhibition of SpheresAβ1-42 binding by peptides (microglia)	blocking of Aβ1-42 induced microglial neurotoxicity by peptides [2]	direct neurotoxicity without microglia (hippocampal neurons)	blocking of plaque-induced microglial toxicity by peptides [3]	IC50 ([2]; read-out: ED50 (blocking of Aβ1-42 induced neurotoxicity), FIG. 16B)	inhibition of Spheresmal-BSA binding by ligands (scavenger receptor)	Solubility [4]	induction of neurotoxic human microglia (human microglia)
Aβ1-11: Aβ peptide residues 1-11 (DAEFRHDSGYE; Amyloid-beta protein 42; UniProt P05067 672-682, looked up, fragment)	inactive	did not	did not	did not	–	–	–	–	–	–
Aβ1-16: Aβ peptide residues 1-16 (DAEFRHDSGYEVHHQK; Amyloid-beta protein 42; UniProt P05067 672-687, looked up, fragment)	–	marked glial binding	effectively prevented; also recorded: selectively suppressed; also recorded: reduction of binding	blocked neurotoxin production	did not produce neurotoxicity	blocked plaque-induced toxicity in vitro	~30 nM	did not affect	–	–
Aβ10-20: Aβ peptide residues 10-20 (YEVHHQKLVFF; Amyloid-beta protein 42; UniProt P05067 681-691, looked up, fragment)	–	–	effectively prevented	blocked neurotoxin production	–	–	–	–	–	–
Aβ12-28: Aβ peptide residues 12-28	inactive	marked glial binding; also recorded: readily bind	–	–	–	–	–	–	soluble	inactive

“Also recorded” adds a separate entry of the source.
